Earlier results as cited in patent US20120225417A1, “Methods, Compositions and Kits for the Evaluation and Preservation of Sperm” (I'Alliance Boviteq Inc., priority 2011, published 2012).
pKi: −log10 of the molar value.

Chains of the proteins cited; added tags and fusions are not shown.
UniProt Q9Y233, whole entry, species assumed: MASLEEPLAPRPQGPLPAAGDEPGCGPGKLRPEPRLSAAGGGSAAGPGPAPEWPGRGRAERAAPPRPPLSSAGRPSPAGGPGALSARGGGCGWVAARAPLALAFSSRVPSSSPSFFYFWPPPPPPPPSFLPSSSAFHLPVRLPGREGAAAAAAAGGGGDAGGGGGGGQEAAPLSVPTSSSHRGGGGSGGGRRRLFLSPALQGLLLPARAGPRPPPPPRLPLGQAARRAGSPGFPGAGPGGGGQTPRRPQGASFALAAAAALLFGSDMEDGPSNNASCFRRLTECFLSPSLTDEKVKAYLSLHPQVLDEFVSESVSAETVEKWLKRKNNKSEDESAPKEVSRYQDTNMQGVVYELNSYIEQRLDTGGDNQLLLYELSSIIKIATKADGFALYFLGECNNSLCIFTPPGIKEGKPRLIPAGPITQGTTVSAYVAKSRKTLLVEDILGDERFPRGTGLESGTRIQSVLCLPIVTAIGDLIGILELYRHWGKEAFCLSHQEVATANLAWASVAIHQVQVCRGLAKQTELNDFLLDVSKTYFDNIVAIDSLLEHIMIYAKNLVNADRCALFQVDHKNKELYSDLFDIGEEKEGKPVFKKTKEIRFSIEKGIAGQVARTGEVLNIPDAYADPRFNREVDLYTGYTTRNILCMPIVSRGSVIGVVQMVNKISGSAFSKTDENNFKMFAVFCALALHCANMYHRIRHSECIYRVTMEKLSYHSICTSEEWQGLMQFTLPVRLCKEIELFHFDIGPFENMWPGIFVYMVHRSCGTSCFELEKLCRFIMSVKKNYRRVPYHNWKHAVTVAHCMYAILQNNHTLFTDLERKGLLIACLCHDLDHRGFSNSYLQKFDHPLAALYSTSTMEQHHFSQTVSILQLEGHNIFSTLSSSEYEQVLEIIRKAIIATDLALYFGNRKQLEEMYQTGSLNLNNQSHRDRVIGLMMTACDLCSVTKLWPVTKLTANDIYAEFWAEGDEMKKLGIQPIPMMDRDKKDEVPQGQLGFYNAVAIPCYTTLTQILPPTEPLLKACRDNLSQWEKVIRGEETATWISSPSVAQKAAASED

Target: PDE10A (Homo sapiens, UniProt Q9Y233)
Conditions: estimated, reported by Strick et al.; cited from earlier work

In the case of `COc1ccc(Cc2nccc3cc(OC)c(OC)cc23)cc1OC` [Papaverine], the pKi is given as 7.52.
